Laboratory results as given in paper PMC7968374 (Bioorganic & medicinal chemistry, 2021).

What was measured:
Hsp27c V23A (Site 3) = conditions: V23A vs wild type
Hsp27c L21A (Site 1) = conditions: L21A vs wild type; minor effect
Hsp27c C59A (Site 1) = conditions: C59A vs wild type; minor effect
Hsp27c T61L (Site 1) = conditions: T61L vs wild type; minor effect
Hsp27c I56A (Site 3) = conditions: I56A vs wild type

## O=[N+]([O-])c1ccc(Oc2ccc(F)cc2F)c([N+](=O)[O-])c1 [Compound 12, 1-(2,4-difluorophenoxy)-2,4-dinitrobenzene]
Hsp27c V23A (Site 3)
  affinity weakened: ~ 4 fold
Hsp27c L21A (Site 1)
  effect on apparent binding affinity: 2–4 fold
Hsp27c C59A (Site 1)
  effect on apparent binding affinity: 2–4 fold
Hsp27c T61L (Site 1)
  effect on apparent binding affinity: 2–4 fold
Hsp27c I56A (Site 3)
  affinity weakened: ~ 4 fold
